Data from paper PMC7997579, “Synthetic Lethality in Pancreatic Cancer: Discovery of a New RAD51-BRCA2 Small Molecule Disruptor That Inhibits Homologous Recombination and Synergizes with Olaparib” (Journal of Medicinal Chemistry, 2020).

Amino acid sequences for entries named in this document (tags omitted).
UniProt Q06609, whole entry: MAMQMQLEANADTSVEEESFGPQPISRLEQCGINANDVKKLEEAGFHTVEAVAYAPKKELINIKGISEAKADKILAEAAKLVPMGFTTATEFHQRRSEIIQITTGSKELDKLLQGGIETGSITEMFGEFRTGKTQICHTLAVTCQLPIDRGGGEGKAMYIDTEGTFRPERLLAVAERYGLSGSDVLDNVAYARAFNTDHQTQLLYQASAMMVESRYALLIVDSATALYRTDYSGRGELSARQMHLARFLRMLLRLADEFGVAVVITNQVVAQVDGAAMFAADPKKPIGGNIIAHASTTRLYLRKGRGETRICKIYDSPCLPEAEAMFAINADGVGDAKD

Target: BRC4–RAD51 interaction (Homo sapiens, UniProt Q06609)
Assay: Competitive biochemical ELISA assay (biotinylated BRC4 peptide vs RAD51)
Conditions: read-out: EC50 (μM) on ELISA assay; competition with BRC4 for RAD51; triplicate, ± standard deviation; NA = not active; racemic mixtures unless enantiomer named
Experimental: To investigate the mechanism of action of the new dihydroquinolone pyrazoline derivatives, different biological assays were performed. As a primary screening, the ability of compounds 5d–57d to inhibit RAD51-BRCA2 interaction was investigated with a competitive biochemical ELISA assay against the parent compound 4d (Table 1). This assay is effective in evaluating the ability of new molecules to compete with BRC4 to bind to RAD51.[30] […] The activity was affected when the fluorine was replaced with chlorine (11d, EC50 = 59 ± 8 μM) and trifluoromethyl groups (16d, EC50 = 29 ± 2 μM). […] 18d–21d, 23d, 25d, 30d, and 31d were active at micromolar range, all very similar to the initial hit. […] The replacement of the aromatic ring A in combination with the substitution of the pyrazoline nitrogen with either propionyl or acetyl chain yielded compounds 33d–51d. […]
Competitive ELISA screening assay using biotinylated BRC4 peptide to disrupt the BRC4–RAD51 interaction was performed by modifying the method described by Rajendra et al.[33] […] Antibody raised against RAD51 (Millipore) and HRP-secondary antibody staining to develop the 3,3′,5,5′-tetramethylbenzidine signal (Sigma) quenched with 1 M HCl was used as the assay readout. Colorimetric measure was read on a Victor5 (PerkinElmer) plate reader. […] Results were analyzed by using GraphPad software.

Row | SMILES | EC50
1 | O=C(O)CCC(=O)N1N=C(c2c(-c3ccccc3)c3cc(Cl)ccc3[nH]c2=O)CC1c1ccc(F)cc1 (single isomer, unassigned) [4d-II] | 10 µM
2 | O=C(O)CCC(=O)N1N=C(c2c(-c3ccccc3)c3cc(Cl)ccc3[nH]c2=O)CC1c1ccc(F)cc1 (single isomer, unassigned) [4d-I] | 4 µM
